In one experiment the target is STAT5a SH2 domain (Homo sapiens, UniProt P42229). Nature of the experiment: Fluorescence polarization assay, STAT5a SH2 domain. The following applies: mean ± s.d. (In general: In fluorescence polarisation assays a small probe gives low polarisation when free and higher when bound to something large.)
A further experiment deals with STAT5b SH2 domain (Homo sapiens, UniProt P51692). Nature of the experiment: Fluorescence polarization assay, STAT5b SH2 domain. The following applies: mean ± s.d.

By UniProt entry, the sequences of proteins in these tests, tags left out.
UniProt P42229, whole entry: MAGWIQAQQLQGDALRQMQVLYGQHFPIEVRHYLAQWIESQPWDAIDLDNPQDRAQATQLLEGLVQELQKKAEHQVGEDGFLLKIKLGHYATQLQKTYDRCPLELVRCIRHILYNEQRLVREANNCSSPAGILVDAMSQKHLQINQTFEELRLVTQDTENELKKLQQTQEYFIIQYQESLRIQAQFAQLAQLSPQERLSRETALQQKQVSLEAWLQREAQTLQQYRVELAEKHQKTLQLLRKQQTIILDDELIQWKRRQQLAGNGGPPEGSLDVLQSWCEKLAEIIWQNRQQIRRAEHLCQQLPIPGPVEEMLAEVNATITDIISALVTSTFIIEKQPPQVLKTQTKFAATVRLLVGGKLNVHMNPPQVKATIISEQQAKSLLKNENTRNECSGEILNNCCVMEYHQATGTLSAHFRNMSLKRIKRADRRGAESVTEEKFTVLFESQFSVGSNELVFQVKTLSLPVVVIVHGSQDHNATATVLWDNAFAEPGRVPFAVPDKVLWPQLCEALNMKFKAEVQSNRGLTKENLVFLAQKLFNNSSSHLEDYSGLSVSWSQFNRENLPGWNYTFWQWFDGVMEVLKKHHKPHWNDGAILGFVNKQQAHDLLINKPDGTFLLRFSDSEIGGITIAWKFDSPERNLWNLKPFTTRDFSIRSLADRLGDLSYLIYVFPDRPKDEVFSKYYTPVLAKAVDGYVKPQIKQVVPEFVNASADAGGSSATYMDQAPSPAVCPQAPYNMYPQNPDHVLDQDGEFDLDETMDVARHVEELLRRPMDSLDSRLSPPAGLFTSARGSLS
UniProt P51692, whole entry: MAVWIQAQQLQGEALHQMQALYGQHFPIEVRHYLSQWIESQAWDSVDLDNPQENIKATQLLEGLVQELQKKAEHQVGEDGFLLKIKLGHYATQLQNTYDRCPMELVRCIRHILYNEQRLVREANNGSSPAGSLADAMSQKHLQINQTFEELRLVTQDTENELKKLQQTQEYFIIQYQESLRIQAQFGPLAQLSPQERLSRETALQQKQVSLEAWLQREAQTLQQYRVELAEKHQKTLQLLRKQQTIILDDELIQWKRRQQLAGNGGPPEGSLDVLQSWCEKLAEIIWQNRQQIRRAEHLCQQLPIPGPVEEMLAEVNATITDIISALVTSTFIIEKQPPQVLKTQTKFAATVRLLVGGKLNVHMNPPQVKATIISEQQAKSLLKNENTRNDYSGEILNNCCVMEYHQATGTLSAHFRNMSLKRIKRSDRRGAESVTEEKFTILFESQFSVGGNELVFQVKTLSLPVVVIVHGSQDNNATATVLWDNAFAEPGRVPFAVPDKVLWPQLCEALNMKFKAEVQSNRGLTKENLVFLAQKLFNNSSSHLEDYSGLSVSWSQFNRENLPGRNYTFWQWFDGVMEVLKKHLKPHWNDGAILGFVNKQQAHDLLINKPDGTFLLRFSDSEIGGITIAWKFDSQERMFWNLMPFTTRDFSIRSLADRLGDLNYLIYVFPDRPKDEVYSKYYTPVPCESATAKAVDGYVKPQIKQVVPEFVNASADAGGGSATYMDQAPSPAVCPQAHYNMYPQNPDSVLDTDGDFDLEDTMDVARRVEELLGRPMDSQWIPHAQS

Each structure is given as a SMILES string.

Usually IC50 stands for the concentration that gives 50% inhibition. Usually Ki stands for a dissociation constant, usually derived from enzyme kinetics or from competition with a known ligand. As for `O=C(COc1ccc(Oc2ccccc2)cc1)NCc1ccc(OP(=O)(O)O)c(OP(=O)(O)O)c1`, the IC50 on STAT5a SH2 domain (read-out: STAT5a IC50, fluorescence polarization, three independent experiments) was determined as 11.6 µM; at STAT5b SH2 domain (read-out: STAT5b IC50, fluorescence polarization, three independent experiments), 0.57 µM. Further, the Ki at STAT5a SH2 domain (read-out: STAT5a Ki, converted from IC50 using the published equation, n = 3) worked out at 5.8 µM; on STAT5b SH2 domain (read-out: STAT5b Ki, converted from IC50 using the published equation, n = 3), 0.25 µM.

Source of the values: article PMC5429769, “Rational development of Stafib-2: a selective, nanomolar inhibitor of the transcription factor STAT5b” (Scientific Reports, 2017).
